Reference: US20130116284A1, “LIPOIC ACID AND NITROXIDE DERIVATIVES AND USES THEREOF” (RADIKAL THERAPEUTICS INC., priority 2010, published 2013)

Tested on: RAW cells
Assay: cytoprotection of RAW cells exposed to H2O2 (viability)
Settings: 0.1 μM, pre-treated 4 hours, H2O2 200 μM for 24 hours; H2O2 alone 65%

SMILES: C[C@]1(c2nc3c(C(N)=O)cccc3[nH]2)CCCN1 [ABT-888]
- viability of RAW cells after H2O2 (restored from 65%): 75%

SMILES: NC(=O)c1cccc2[nH]c(CCCCC3CCSS3)nc12 (centres unmarked) [compound 1, 2-(4-(1,2-dithiolan-3-yl)butyl)-1H-benzo[d]imidazole-4-carboxamide]
- viability of RAW cells after H2O2 (restored from 65%): 90%
